The EC50 is the concentration that produces a half-maximal response. Higher therefore signals a less potent agent.

Consider one compound from patent US20230096602A1, “TETRAHYDROCYCLOPENTA[B]INDOLE COMPOUNDS FOR TREATMENT OF RENAL DISEASE” (Eirgen Pharma Ltd., priority 2020, published 2023).

One assay relates to LnCAP cells. The assay is described as follows: LnCAP gene expression. The format is cell-based, human. Conditions: PSA.
The subject of assay [1] is orchidectomized (ORX) rats. The experiment in a line: Testosterone induced prostate and seminal vesicle growth in delayed ORX rat model. The format is in vivo. Conditions: ORX + Example 1, 10 mg/kg/d (no TE) vs ORX + TE; Dunnett. An excerpt: Orchidectomized (ORX) and sham-operated Wistar male rats were used (orchidectomized at 8 weeks of age and allowed to waste for 4 weeks). […] Rats were randomized and placed into treatment groups (n=6) based on body weight. Route of administration for all groups except testosterone enanthate (TE was given sub-cutaneously) was oral. At the end of 2 weeks of daily rats were euthanized, weighed & tissue harvested. Levator ani, prostates, and seminal vesicles were collected from each animal. Results are plotted as means±SE.

As to `CC(C)OC(=O)N[C@H]1Cc2c(n(Cc3ccccn3)c3ccc(C#N)cc23)C1` [compound of Formula II, (S)-(7-cyano-4-pyridin-2-ylmethyl-1,2,3,4-tetrahydro-cyclopenta[b]indol-2-yl)-carbamic acid isopropyl ester], it took 2.64 nM to reach a half-maximal effect in the assay on LnCAP cells (EC50). Moreover, the “prostate weights Abs(Dif)-LSD” value in assay [1] came to 0.357.
